Values of other authors as cited in PMC6278313.

Assays:
COX-2 [1] = biological target: COX-2; set-up: method as in literature cited in the text (18-30); conditions: Chart 1; ref literature cited in the text (18-30); cited from earlier work
COX-2 [2] = conditions: Chart 1, ref literature cited in the text (18-30), cited from earlier work

## [11CH3]Oc1ccc(-c2cc(C(F)(F)F)nn2-c2ccc(S(N)(=O)=O)cc2)cc1 [[^11C]2]
COX-2 [1]
  Ki: 8 nM
COX-2 [2]
  specific signal / specific binding in vivo: No brain specific signal

## [11CH3]Oc1ccc(-c2c(-c3ccc(S(N)(=O)=O)cc3)[nH]c3ccccc23)cc1 [[^11C]7]
COX-2 [1]
  Ki: 6 nM
COX-2 [2]
  specific signal / specific binding in vivo: No specific signal

## CS(=O)(=O)c1ccc(C2=C(c3ccc(O[11CH3])cc3)CCC2)cc1 [[^11C]8]
COX-2 [1]
  Ki: 5 nM
COX-2 [2]; PET in vivo
  brain entry: Brain penetrant
